Legend:
[1] = Equilibrium moisture content of solvent; format: physicochemical; conditions: Table 1
[2] = Isobutanol partitioning between solvent and water (Kd, butanol partition coefficient); conditions: aqueous 2.0 wt % isobutanol

## CCCCOP(=O)(OCCCC)OCCCC
[1]
  Moisture Content (wt %): 6.7 wt %
[2]; half its mass of solvent
  isobutanol in organic layer, calculated by mass balance: 3.22 wt %
  mass partitioning coefficient: 9.8
[2]; half its mass of solvent (5 g/2.5 g or 1 g/0.5 g), HPLC
  isobutanol in aqueous layer: 0.33 wt %

Source: patent publication US9682908B2, “Method for producing butanol using extractive fermentation” (BUTAMAX ADVANCED BIOFUELS LLC, priority 2013, dated 2017)
